# Assay type: in vivo
# Settings: 150 mg/kg
structure (smiles),measurement,value
O=C(NOC[C@H](O)CO)c1ccc(F)c(F)c1Nc1ccc(I)cc1F [PD-0325901],acute toxicity / survival,recovered over 24 hours
